Measurements: ChEMBL document CHEMBL4706546, “Sulfoximines as Rising Stars in Modern Drug Discovery? Current Status and Perspective on an Emerging Functional Group in Medicinal Chemistry” (J Med Chem, 2020)

Protein sequences, listed by entry. Tags and fused reporters are not part of them.
UniProt P27487, whole entry: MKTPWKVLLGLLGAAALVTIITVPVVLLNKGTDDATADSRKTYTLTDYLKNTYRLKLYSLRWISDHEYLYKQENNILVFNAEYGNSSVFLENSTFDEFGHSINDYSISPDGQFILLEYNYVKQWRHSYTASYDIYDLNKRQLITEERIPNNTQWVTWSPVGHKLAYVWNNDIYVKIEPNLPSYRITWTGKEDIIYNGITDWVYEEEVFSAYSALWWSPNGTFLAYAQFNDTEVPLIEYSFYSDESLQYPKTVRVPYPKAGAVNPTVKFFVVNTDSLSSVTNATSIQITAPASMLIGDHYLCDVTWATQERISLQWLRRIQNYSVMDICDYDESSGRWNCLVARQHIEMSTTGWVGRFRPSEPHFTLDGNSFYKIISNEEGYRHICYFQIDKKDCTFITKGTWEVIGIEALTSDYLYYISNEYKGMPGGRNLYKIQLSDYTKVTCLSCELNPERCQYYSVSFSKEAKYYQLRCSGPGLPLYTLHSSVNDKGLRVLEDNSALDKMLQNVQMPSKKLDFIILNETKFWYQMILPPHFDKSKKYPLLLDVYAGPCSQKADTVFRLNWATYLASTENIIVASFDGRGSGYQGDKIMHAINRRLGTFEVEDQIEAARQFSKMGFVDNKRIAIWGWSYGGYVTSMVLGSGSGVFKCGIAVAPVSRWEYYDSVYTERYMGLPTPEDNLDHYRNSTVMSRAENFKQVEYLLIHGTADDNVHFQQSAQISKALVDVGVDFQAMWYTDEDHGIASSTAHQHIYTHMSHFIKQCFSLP

Target: Dipeptidyl peptidase 4 (Homo sapiens, UniProt P27487)

An IC50 of 34 nM was found for C[C@]1(N2Cc3c[nH]nc3C2)CO[C@H](c2cc(F)ccc2F)[C@@H](N)C1 in this work.
